# Laboratory results: PubChem BioAssay AID456 (Sanford-Burnham Center for Chemical Genomics, 2006)
# The list shows a part of the results, in another mix than the full data. Potency and affinity values are given separately. Calls of active or inactive are those of the source.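 Rule for the calls: active = top tenth filtered wells with inhibition above zero that passed visual or statistical confirmation; inactive = the rest, including hits rejected on review.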
# Experiment: inhibitors of TNFa-induced VCAM-1 surface display, imaging, high-content imaging, pooled HUVEC, TNFa stimulus (AID 456);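 note: VCAM-1 immunofluorescence minus red nonspecific channel after plate median normalization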
# Conditions: HUVEC TNFa-induced VCAM-1 surface expression, immunofluorescence imaging;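 compounds screened at 5 µM final in the well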
row,Compound,inhibition
1,O=P(Nc1nccs1)(c1ccccc1)c1ccccc1,inactive: 0%
2,COP1(=S)c2c(C)nn(CCC#N)c2N=C(c2ccc(F)cc2)N1C (stereo not given),inactive: 0%
3,O=C(COc1ccccc1)OC1CN2CCC1CC2 (stereo not given),inactive: 0%
4,Cc1nn(-c2ccccc2)c2c1P(=O)(N1CCOCC1)N(C)C(c1ccccc1)=N2 (stereo not given),inactive: 0%
5,CCOP1(=S)c2c(C)nn(CCC#N)c2N=C(c2ccccc2F)N1C (stereo not given),inactive: 0%
